Experimental data reported in patent US12667624B2, “GIP derivative, long-acting conjugate thereof, and pharmaceutical composition comprising same” (HANMI PHARM. CO., LTD., priority 2020, dated 2026).

System: MRL/Ipr mice
Test: Vasculitis disease model MRL/Ipr mice: gene expression in renal arteries
Assay type: in vivo, mouse
Conditions: abatacept 5.7 mg/kg, conjugate 0.12, 1.05 or 3.16 mg/kg at 2-day intervals, 10th week
From the text: To confirm efficacy of the long-acting GIP conjugate on vasculitis in a disease model, MRL/Ipr mice were used. In the case of the mice, it is known that vasculitis is observed in the large vessels including the aorta and major branches caused by systemic inflammation (Arthritis Rheum. 2003 May; 48(5):1445-51). Therefore, the mice of this type were selected as a vasculitis disease model.
There are a normal mouse control group administered with an excipient, a disease mouse control group administered with an excipient, a control group administered with commercially available abatacept (Orencia, Inc.,) at a concentration of 5.7 mg/kg, and test groups each administered with the long-acting GIP conjugate at a concentration of 0.12 mg/kg, 1.05 mg/kg, or 3.16 mg/kg. The administration of the excipient and the drugs was performed at 2-day intervals, and the experiment was terminated at the 10th week. For use as the long-acting GIP conjugate, the long-acting GIP conjugate (SEQ ID NO: 17) prepared in Example 3 was used.

Question: How did the “expression of inflammation-related genes MCP-1, IL-1β, IL-6, TNF-α in renal arteries compared to disease model control” value (FIG. 4A) turn out when abatacept was run?
Answer: significantly reduced

Question: And the “expression of vascular remodeling genes MMP-2 and MMP-9 in renal arteries compared to control groups” value (FIG. 4B)?
Answer: unlike the case of abatacept
